A short description of this data set: Solubilization of hydrophobic organic compound in aqueous sodium monomenthyl glutarate (Na-MMG).

These results are taken from US7652067B2, “Aqueous compositions containing monoester salts” (Millenium Specialty Chemicals, Inc., priority 2006, dated 2010).

With `CC(C)[C@@H]1CC[C@@H](C)C[C@H]1O` [l-menthol], the “content in clear homogeneous solution with Na-MMG (12.7%)” value (Example 12: crude MMG mixture neutralised with NaHCO3 and diluted with water) is listed as 1.2%.

As to `CC(C)[C@@H]1CC[C@@H](C)C[C@H]1OC(=O)[C@H](C)O` [l-menthyl lactate], where the note is “MMG neutralised with 8.8% aqueous sodium bicarbonate, clear homogeneous solution”, the “concentration of hydrophobic compound in clear, homogeneous solution in aqueous Na-MMG” value was about 1.25%.
